Measured values published in article PMC10364322, “Evaluation of chronic drug-induced electrophysiological and cytotoxic effects using human-induced pluripotent stem cell-derived cardiomyocytes (hiPSC-CMs)” (Frontiers in Pharmacology, 2023).
Read-outs that look alike come from different tables or passages of the source.

Tested on: hiPSC-CMs (iCell-Cardiomyocytes^2)
Method: Cells were seeded according to the instructions of the cell provider, in fibronectin-coated 48-well MEA plates (Axion Cytoview Plates, M768-tMEA-48B) at a density suited to form a monolayer (i.e., 50 K/well) and maintained in culture in a stage incubator (37°C, 5% CO2).
At least 4 h before the beginning of the baseline measurements, a full medium exchange was performed (to a final volume of 400 µL per well). Neat compounds were dissolved in 100% DMSO at a stock concentration 1000-fold the highest target concentration. […] Afterwards, these stock solutions were diluted with Maintenance medium (CDi), to 10-fold the intended concentration. The final DMSO concentration in test solutions and vehicle control was 0.1%.
Spontaneous electrical activity was recorded in hiPSC-CMs monolayers as field potentials using the Maestro Pro MEA instrument (Axion Biosystems, Atlanta, GA, United States), which allows the maintenance of accurate temperature and CO2 levels (37°C, 5% CO2). After the plate was placed in the Maestro Pro and allowed to equilibrate for about 10 min, baseline acquisition of field potential and impedance signals was initiated and lasted for 5 min each. […] As impedance measures resistance of an applied alternating current through the hiPSC-CMs monolayer, a reduction in the attachment of hiPSC-CMs to the bottom of the well due to cell death or changes in the monolayer morphology, causes a drop in the impedance signal.
The potential presence of various arrhythmic events was evaluated and noted during the data analysis.
After the acquisition of all timepoint measurements, raw data were loaded into the data analysis software Axion Cardiac Analysis Tool (V.3.2.3). […] A.csv file containing information on the FP parameters per well, per time point, was then generated and used as input to the in-house data management system (SPEcII v.3.4, Unlimit-IT, Geel, Belgium), where descriptive statistics were calculated. Summary values at different time points after compound addition are expressed as percent change from baseline and shown as mean ± standard deviation (SD).
The nonparametric Wilcoxon-Mann Whitney Test was used to compare the percent change from the baseline (Δ%) value between the group treated with the compound at a given concentration and the group treated with the DMSO at each matching time points. A two-sided test at 5% significance level was considered. […] To assess the physiological relevance of changes, a tolerance interval of DMSO experiments was calculated at each time point, for each parameter. […] TIs indicate an interval where, with a certain confidence level (1- α = 0.95), a specified proportion (p = 0.80) of percent change for DMSO data falls. The lower and upper limits based on the TI values were used as cut-offs for the interpretation of the changes. For the cytotoxicity assays, measurements of fluorescence (after background fluorescence subtraction) from wells treated with the compounds were normalized by the average value of vehicle experiments (DMSO 0.1%) to obtain a DMSO-corrected, delta/delta percent change. Experiments from each condition, as delta/delta percent, were averaged and expressed as mean ± SD. Statistical analysis was performed using a non-parametric test (Kruskal-Wallis) and each treatment condition was compared to the relative DMSO 0.1%. Differences were considered statistically significant when the p-value was smaller than 0.05.

Structure (SMILES): CCN(CC)CCNC(=O)c1c(C)[nH]c(/C=C2\C(=O)Nc3ccc(F)cc32)c1C [Sunitinib]
- Beating below threshold, number of observations/total well numbers (0.03 µM, 2h): 0/5
- Cessation of beating, number of observations/total well numbers (0.03 µM, 2h): 0/5
- EAD, number of observations/total well numbers (0.03 µM, 2h): 0/5
- Flat T-wave-like, number of observations/total well numbers (0.03 µM, 2h): 0/5
- Beating below threshold, number of observations/total well numbers (0.03 µM, 24h): 0/5
- Cessation of beating, number of observations/total well numbers (0.03 µM, 24h): 0/5
- EAD, number of observations/total well numbers (0.03 µM, 24h): 0/5
- Flat T-wave-like, number of observations/total well numbers (0.03 µM, 24h): 0/5
- Beating below threshold, number of observations/total well numbers (0.03 µM, 48h): 0/5
- Cessation of beating, number of observations/total well numbers (0.03 µM, 48h): 0/5
- EAD, number of observations/total well numbers (0.03 µM, 48h): 0/5
- Flat T-wave-like, number of observations/total well numbers (0.03 µM, 48h): 0/5
- Beating below threshold, number of observations/total well numbers (0.03 µM, 72h): 0/5
- Cessation of beating, number of observations/total well numbers (0.03 µM, 72h): 0/5
- EAD, number of observations/total well numbers (0.03 µM, 72h): 0/5
- Flat T-wave-like, number of observations/total well numbers (0.03 µM, 72h): 0/5
- Beating below threshold, number of observations/total well numbers (0.03 µM, 96h): 0/5
- Cessation of beating, number of observations/total well numbers (0.03 µM, 96h): 0/5
- EAD, number of observations/total well numbers (0.03 µM, 96h): 0/5
- Flat T-wave-like, number of observations/total well numbers (0.03 µM, 96h): 0/5
- Beating below threshold, number of observations/total well numbers (0.1 µM, 2h): 0/5
- Cessation of beating, number of observations/total well numbers (0.1 µM, 2h): 0/5
- EAD, number of observations/total well numbers (0.1 µM, 2h): 0/5
- Flat T-wave-like, number of observations/total well numbers (0.1 µM, 2h): 0/5
- Beating below threshold, number of observations/total well numbers (0.1 µM, 24h): 0/5
- Cessation of beating, number of observations/total well numbers (0.1 µM, 24h): 0/5
- EAD, number of observations/total well numbers (0.1 µM, 24h): 0/5
- Flat T-wave-like, number of observations/total well numbers (0.1 µM, 24h): 0/5
- Beating below threshold, number of observations/total well numbers (0.1 µM, 48h): 0/5
- Cessation of beating, number of observations/total well numbers (0.1 µM, 48h): 0/5
- EAD, number of observations/total well numbers (0.1 µM, 48h): 0/5
- Flat T-wave-like, number of observations/total well numbers (0.1 µM, 48h): 0/5
- Beating below threshold, number of observations/total well numbers (0.1 µM, 72h): 0/5
- Cessation of beating, number of observations/total well numbers (0.1 µM, 72h): 0/5
- EAD, number of observations/total well numbers (0.1 µM, 72h): 0/5
- Flat T-wave-like, number of observations/total well numbers (0.1 µM, 72h): 0/5
- Beating below threshold, number of observations/total well numbers (0.1 µM, 96h): 0/5
- Cessation of beating, number of observations/total well numbers (0.1 µM, 96h): 0/5
- EAD, number of observations/total well numbers (0.1 µM, 96h): 0/5
- Flat T-wave-like, number of observations/total well numbers (0.1 µM, 96h): 0/5
- Beating below threshold, number of observations/total well numbers (0.3 µM, 2h): 0/5
- Cessation of beating, number of observations/total well numbers (0.3 µM, 2h): 0/5
- EAD, number of observations/total well numbers (0.3 µM, 2h): 0/5
- Flat T-wave-like, number of observations/total well numbers (0.3 µM, 2h): 0/5
- Beating below threshold, number of observations/total well numbers (0.3 µM, 24h): 0/5
- Cessation of beating, number of observations/total well numbers (0.3 µM, 24h): 0/5
- EAD, number of observations/total well numbers (0.3 µM, 24h): 2/5
- Flat T-wave-like, number of observations/total well numbers (0.3 µM, 24h): 0/5
- Beating below threshold, number of observations/total well numbers (0.3 µM, 48h): 0/5
- Cessation of beating, number of observations/total well numbers (0.3 µM, 48h): 0/5
- EAD, number of observations/total well numbers (0.3 µM, 48h): 3/5
- Flat T-wave-like, number of observations/total well numbers (0.3 µM, 48h): 0/5
- Beating below threshold, number of observations/total well numbers (0.3 µM, 72h): 0/5
- Cessation of beating, number of observations/total well numbers (0.3 µM, 72h): 0/5
- EAD, number of observations/total well numbers (0.3 µM, 72h): 0/5
- Flat T-wave-like, number of observations/total well numbers (0.3 µM, 72h): 0/5
- Beating below threshold, number of observations/total well numbers (0.3 µM, 96h): 0/5
- Cessation of beating, number of observations/total well numbers (0.3 µM, 96h): 0/5
- EAD, number of observations/total well numbers (0.3 µM, 96h): 1/5
- Flat T-wave-like, number of observations/total well numbers (0.3 µM, 96h): 0/5
- Beating below threshold, number of observations/total well numbers (1 µM, 2h): 0/5
- Cessation of beating, number of observations/total well numbers (1 µM, 2h): 0/5
- EAD, number of observations/total well numbers (1 µM, 2h): 0/5
- Flat T-wave-like, number of observations/total well numbers (1 µM, 2h): 2/5
- Beating below threshold, number of observations/total well numbers (1 µM, 24h): 0/5
- Cessation of beating, number of observations/total well numbers (1 µM, 24h): 0/5
- EAD, number of observations/total well numbers (1 µM, 24h): 0/5
- Flat T-wave-like, number of observations/total well numbers (1 µM, 24h): 5/5
- Beating below threshold, number of observations/total well numbers (1 µM, 48h): 0/5
- Cessation of beating, number of observations/total well numbers (1 µM, 48h): 3/5
- EAD, number of observations/total well numbers (1 µM, 48h): 0/5
- Flat T-wave-like, number of observations/total well numbers (1 µM, 48h): 2/5
- Beating below threshold, number of observations/total well numbers (1 µM, 72h): 0/5
- Cessation of beating, number of observations/total well numbers (1 µM, 72h): 4/5
- EAD, number of observations/total well numbers (1 µM, 72h): 0/5
- Flat T-wave-like, number of observations/total well numbers (1 µM, 72h): 1/5
- Beating below threshold, number of observations/total well numbers (1 µM, 96h): 0/5
- Cessation of beating, number of observations/total well numbers (1 µM, 96h): 5/5
- EAD, number of observations/total well numbers (1 µM, 96h): 0/5
- Flat T-wave-like, number of observations/total well numbers (1 µM, 96h): 0/5
